Antibody variant affinities, Ab-14 light chain, assay B

Binding partner: SARS-CoV-2 spike HR2 peptide, sequence PDVDLGDISGINAS.

Ab-14 is the parent antibody, in scFv form: VH, then a (GGGGS)3 linker, then VL. The heavy chain is unchanged in all variants.
VH: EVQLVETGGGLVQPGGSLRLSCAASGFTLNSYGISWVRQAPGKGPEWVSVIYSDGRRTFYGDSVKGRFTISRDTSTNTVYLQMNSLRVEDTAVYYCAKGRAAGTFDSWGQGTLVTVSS
VL: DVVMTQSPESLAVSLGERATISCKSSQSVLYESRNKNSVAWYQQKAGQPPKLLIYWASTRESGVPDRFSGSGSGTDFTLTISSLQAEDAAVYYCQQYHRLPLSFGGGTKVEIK

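These sequences belong to a second round, designed from the earlier measurements on random variants of the parent. Several design methods are mixed in this list. In AlphaSeq, yeast of one mating type display the scFv and yeast of the other type display the target. Binding brings cells together so that they mate, and sequencing counts the barcode pairs among the diploids. A regression on co-assayed BCL2-family reference pairs converts the normalised counts of each replicate to an apparent Kd. The assay was run in six technical replicates.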

The parent's light chain CDRs are KSSQSVLYESRNKNSVA, WASTRES, QQYHRLPLS; each variant's own CDRs replace them letter for letter.
This list holds designs with more than six substitutions.
The Kd shown is the geometric mean over detected replicates; a lower Kd is a better binder.
"nd" marks a missing value. The strain was present, yet no cells mated with the target were sequenced in any replicate, which points to weak or no binding.
The authors' rule: three or more of the six replicates give a measured affinity, fewer mean a poor binder.
Nonspecific signal, from three strains lacking the peptide, appeared in 4% of pairings of all light chain designs, centred on 430 nM (5% of these signals below 38 nM); values are not corrected for it.
The parent sequence was in this pool as ten entries: three were never detected, three once, and four in most replicates, with averages from 2.2 nM to 240 nM.
A sequence measured in both rounds can read differently, since the two assays cover different ranges.

CDR-L1,CDR-L2,CDR-L3,apparent Kd,detected
KISQMARVGSTKQNSIA,EEATRCD,QQYHRLPLF,5.2 nM,6/6
KVSQLDDGGSRNKNSVA,HAHTRES,QQYHRLPLS,3.9 nM,6/6
RFDQTEQEGIQDYNSVA,QGSQSGT,QHYSRLPLS,660 nM,2/6
KLGQMTGIESHNKNSLA,DANRRES,QQYYRLPLS,330 pM,6/6
KLLSLSLHQTGKLNSVA,DAEITQI,QQYMSLPLM,10 nM,4/6
MLTWGDDHETGHQNSIA,HAHERNT,QQYAQLPLT,5.6 nM,6/6
HISMSMNWLTRNKNSIA,EESTRED,QQYDRLPLS,4.6 nM,6/6
KISGLSNHQSSVSNNVA,ENVTRVQ,QQYFRLPLA,23 nM,6/6
KISQMYRYEQQNSSSIA,EVTTRLN,QSYHRLPLS,nd,0/6
MISQLMNMGQFAINSVA,QASIRNS,QQYDRLPLM,41 nM,6/6
KVHAYVQGVEQDQQNIA,ETSYASR,QQYFRLPLS,16 nM,6/6
KLDQWQDYESRNKASVA,QASTRES,QQYHRLPLS,2.3 nM,6/6
RLWQQMYGFNIHANAIA,EGKERYW,QQYFRLPLS,6.5 nM,6/6
KSSQLEYYEDRMKNSVA,NASYRLS,QQYHRLPLS,2.7 nM,6/6
KLQQSQLYESQNWNSVA,NASKRES,QQYHRLPLS,1.1 nM,6/6
MISQTFLIGMKAKNSVA,QTNTREE,QQYDRLPLI,2.5 nM,6/6
KIGSLTNGEKFQSNSVA,QTSTREE,QQYHRLPLS,1.6 nM,6/6
VYNLPFEGYQPKKYSIA,NAEIREI,QQYFRLPIL,1.2 nM,6/6
KLYMTVGYEQRNKSRVA,DNNTRED,QQYDRLPLS,290 nM,2/6
HFSQVTMYGSWNKNSVA,QTSTREN,QQYDRLPLS,240 nM,4/6
KLMNSLGAFKQSEDNVA,EVEQKVA,QQYDHLPLT,nd,0/6
KLSQEDEYESRNPNSVA,QASERES,QQYHRLPLS,550 pM,6/6
TLYGLSNSMSKNKNNVA,EMSTREP,QQYDRLPLV,8.0 nM,6/6
QLEFERGDEWKQGAAIA,GNTESLH,QQYAMLPLS,6.5 nM,6/6
KLSESVLYESQNANNVA,DASTRMS,QQYHRLPLS,470 pM,6/6
SIYDATGMESRNKNPIA,DVSTRPD,QQYHRLPLS,770 pM,6/6
HIGGVLEGENVKGRSVA,HMNTRED,QQYDRLPLS,660 pM,6/6
TISELHNQALGMRNNVA,NNQTRED,QQYNRLPLS,66 nM,3/6
HISQMVMYGSCNKNNVA,QVQLREE,QQYHRLPLS,6.3 nM,6/6
MVSQLMLWGLHAKNSIA,EAETRGN,QQYDRLPLF,12 nM,5/6
KVSEFMRGLMQRKDSIA,DNETRNN,QQYDRLPLS,49 nM,6/6
KSAYSELYESANKNSVA,SANTRSS,QQYHRLPLS,1.0 nM,6/6
KLQQSELYGERNSNSVA,HASLRES,QQYHRLPLS,2.2 nM,6/6
KLSMITGHMSMAKDNVA,EMVNREK,QQYNRLPLS,8.8 nM,6/6
TISQVMNILTRHGNNVA,DLEERED,QQYFRLPLS,2.5 nM,6/6
KISMSYRYESQEKNNIA,EMSTREE,QSYHRLPLS,4.1 nM,6/6
TISQMFLGESRNRNSVA,QASTRES,QCYDRLPLS,7.0 nM,6/6
MVGQGLMGESRAKNSIA,QASLRED,QQYHRLPLI,3.5 nM,6/6
IIEQGEWEQEQNQNAMA,DGETRMR,QQYYKLPLV,6.5 nM,6/6
NFGQKMALYTGQRYSIA,DHTVRAD,QQYSRLPLT,1.8 nM,6/6
KLSQQNEYESRMMNSVA,MASQRES,QQYHRLPLS,47 nM,6/6
KISMLHNQTFEVSNNVA,EMVTREK,QQYNRLPLS,87 nM,6/6
QLDHQLQYMDANKQSVA,EMTEVTT,QQYHRLPLE,nd,0/6
SLREMILDWDNKMGNVA,DMHMREQ,QQYFRLPIM,3.5 nM,6/6
MLSDLVRMGSRNTNSVA,DNSTRGS,QQYDRLPLS,82 nM,6/6
RVRLNSGEIDMHWYNIA,SASIRAD,QQYFRLPIF,5.5 nM,6/6
VFSGLFQGDEQSYNSVA,EASLSNT,QQYISLPLS,nd,0/6
KLWAYFQGLEQNMQNVA,DGSYVST,QQYHRFPLS,76 nM,1/6
TLYGLSMSMSKNKNNVA,EMSTREN,QQYDRLPLA,2.1 nM,6/6
MISQVTGLGQRHRNNVA,QTSMREI,QQYDRLPLI,69 nM,6/6
KLYQSMGYLSHNKNSIA,DMTRREN,QQYHRLPLS,1.4 nM,6/6
KVSEFMKGLMMRTDSIA,DNTTRNQ,QQYDRLPLS,710 nM,5/6
MMDNCQEGYYQQNNNVA,EMNARMM,QQYGRLPLM,22 nM,6/6
KLVMSWQYESRNKNSVA,HASQRCS,QQYHRLPLS,7.2 nM,5/6
MLSDLVKMGSRNTNSVA,DNSTRGG,QQYDRLPLS,8.1 nM,6/6
KLMNLMGGIEQMKNSIA,NLELGAR,QQYAHLPLV,nd,0/6
HITYGMYVSGRYKSNIA,QAEERAK,QQYDRLPFI,2.6 nM,6/6
SLGLVTMLEYANRNNVA,NNSTRES,QQYDRLPLS,nd,0/6
KIQQSVYYEDLNKNSVA,HASTRCS,QQYHRLPLS,1.9 nM,6/6
KMRVSLLQGIYRSDSIA,STDIRVL,QQYHHLPLS,31 nM,6/6
KIQWYQLEIRDPGSAVA,EASVRYN,QQYMRLPLE,nd,0/6
NFRQMVLTGSTLKNSVA,HASTREE,QQYHRLPLI,3.5 nM,6/6
HLSSNMWMESSMWDAVA,QGDIAMN,QDYSRLPLS,1.3 µM,3/6
KIFQSELYESRQKNSVA,NASDRMS,QQYHRLPLS,5.8 nM,6/6
HLSHMSGVESVKHNSVA,ENSTREQ,QQYDRLPLS,310 nM,5/6
KLSWSWLLESRAKNSVA,NASLRES,QQYHRLPLS,4.8 nM,6/6
IISGQMLMESRNKNSVA,NAETREY,QHYDRLPLS,2.2 nM,5/6
KISMLSENQLKNRNSVA,ELVTRLN,QQYNRLPLS,7.6 nM,6/6
TIGQTLMQGIRNRSNVA,EVSQRLN,QQYDRLPLM,28 nM,6/6
KFSQQVLYEDRQANSVA,NASQRMS,QQYHRLPLS,5.3 nM,6/6
MLSQMTGLGMKAKNSVA,QANMRFD,QQYHRLPLI,180 nM,6/6

The first 9 entries again:

CDR-L1,CDR-L2,CDR-L3,apparent Kd,detected
KISQMARVGSTKQNSIA,EEATRCD,QQYHRLPLF,5.2 nM,6/6
KVSQLDDGGSRNKNSVA,HAHTRES,QQYHRLPLS,3.9 nM,6/6
RFDQTEQEGIQDYNSVA,QGSQSGT,QHYSRLPLS,660 nM,2/6
KLGQMTGIESHNKNSLA,DANRRES,QQYYRLPLS,330 pM,6/6
KLLSLSLHQTGKLNSVA,DAEITQI,QQYMSLPLM,10 nM,4/6
MLTWGDDHETGHQNSIA,HAHERNT,QQYAQLPLT,5.6 nM,6/6
HISMSMNWLTRNKNSIA,EESTRED,QQYDRLPLS,4.6 nM,6/6
KISGLSNHQSSVSNNVA,ENVTRVQ,QQYFRLPLA,23 nM,6/6
KISQMYRYEQQNSSSIA,EVTTRLN,QSYHRLPLS,nd,0/6

Reference: Li et al. 2023, doi:10.1038/s41467-023-39022-2. File: FLAb, binding data.